Compounds with a hit are over-represented: about 13% of the library has one in this group of screens.
miR-21 reporter = miR-21 reporter, rising signal | AID 2288 | HeLa miR-21 FLuc reporter, luciferase, 48 h | 340,000 tested, under 10 active | Potency, µM (doses to about 38.3 µM), for inactives: at the top dose reporter change, positive = more light; active = well fitted rising curve with a large enough effect; inconclusive = small, poorly fitted or top-dose-only effect; inactive = no such curve, though single readings can be large or run the other way;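 note: % of control where 0% means no effect; miR-21 action dims this reporter so a rising signal means less miR-21 action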
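Using DMEM plus 10% FBS, HeLa miR-21-FLuc cells are incubated with test compounds (final up to about 40uM) for 48 hours; firefly luciferase signal is then imaged following reagent-mediated lysis.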
Sfp PPTase inh = Sfp phosphopantetheinyl transferase inhibition | Q9F4F7 | Biochemical Sfp PPTase activity, qHTS | Potency, µM, inactives show max response, negative = inhibition, usual class: inhibitors | actives 3.5% (n = 310,000) | AID 1490; active = well fitted inhibition curve with a large enough effect; inconclusive = small, poorly fitted or top-dose-only effect, or another doubt; inactive = no such curve, though single readings can be large or run the other way;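 also: the enzyme is Sfp with the accession as filed and its product quenches rhodamine fluorescence; potency is read from the fitted curve at half-maximal effect; 0% = enzyme reaction without inhibitor and -100% = no enzyme wells; top concentration of the series not given in the record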
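Step 1, compound plus 15 nM Sfp-PPTase, 15 min, room temperature. Step 2, add rhodamine-CoA (5 uM) and BHQ-2-YbbR (12.5 uM). Step 3, read 525/598 nm fluorescence at 0 and 30 min.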
KDM4E inh = inhibitors of human JMJD2E histone demethylase; B2RXH2; JMJD2E catalytic domain, FDH-coupled NADH fluorescence (FDH is formaldehyde dehydrogenase); Potency, µM (highest dose often 57.1 µM), without a hit: at the highest dose activity change, negative = inhibition, usual class: inhibitors; hit rate 1.6% among 230,000; AID 2147; active means well fitted inhibition curve with a large enough effect, not every such curve was filed as active; inconclusive means small, poorly fitted or top-dose-only effect, or another doubt; inactive means no such curve, though single readings can be large or run the other way;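 further: potency means the concentration at half of the fitted maximal effect; 0% = wells with enzyme and -100% = buffer wells without enzyme; nearly all actives have a fitted effect of over 50% in size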
G9a block = G9a (human) methyltransferase inhibition. Q96KQ7. hit rate 8.8% among 350,000. Potency, µM (top dose mostly 102 µM), for the others: at the top dose activity, negative = inhibition, most hits filed as inhibitors. G9a H3K9 monomethylation, AlphaScreen, 2 h. AID 504332; further: potency means the concentration at half of the fitted maximal effect; on the % scale 0 is the no-effect control and ±100 the full control effect; nearly all actives have a fitted effect of over 75% in size
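Signal arises when biotinylated H3K9 peptide, once monomethylated, bridges streptavidin donor and antibody-captured acceptor beads. Enzyme at 20 nM was preincubated 15 min with test compounds; peptide 500 nM and SAM 20 uM then reacted for 2 h.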
Lamin A splicing = LMNA splicing modulation; HeLa LMNA splicing GFP/RFP minigene ratio, 48 h; Potency, µM (series often up to 46.1 µM), for the others: at the top dose ratio change, negative = inhibition, actives largely listed as inhibitors; hit rate 0.01% among 200,000; active means well fitted inhibition curve with a large enough effect in the signal ratio, with a control signal flat, not every such curve was filed as active; inconclusive means small, poorly fitted or top-dose-only effect, or effect the other way, or a change in a side signal; the % refers to the signal ratio; further: potency means the concentration at half of the fitted maximal effect; on the % scale 0 is the no-effect control and ±100 the full control effect
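S3 HeLa stable clones carrying a lamin A-EGFP splicing minigene plus DsRed2 were seeded at 600 cells/well in Opti-MEM with 2% FBS, pin-dosed and incubated 48 h at 37°C. Acumen cytometry (488 nm) gave the GFP/RFP total-intensity ratio.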
ALDH1A1 block = ALDH1A1 (human) enzyme inhibition. hit rate 7.3% among 220,000. Purified ALDH1A1, NADH fluorescence, propionaldehyde substrate. Potency, µM (highest dose often 75.3 µM), inactives show at the top dose activity, negative = inhibition, most hits filed as inhibitors; active means well fitted inhibition curve with a large enough effect, not every such curve was filed as active; inconclusive means small, poorly fitted or top-dose-only effect, or another doubt; inactive means no such curve, though single readings can be large or run the other way;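 further: potency means the concentration at half of the fitted maximal effect; plate controls were no enzyme wells and a reference inhibitor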
* marks the source's active call; other numbers are inactive results; ? = inconclusive; . = not tested or not shown; [ ] = dose if it differs, or a comment. Unless noted, the call rests on the fitted dose curve; in most records, active means well fitted curve in the direction sought with a large enough effect; inconclusive means small, poorly fitted or top-dose-only effect, or another doubt; inactive means no such curve, though single readings can be large; an effect the other way counts as inactive or inconclusive.

Labels used below: A = miR-21 reporter; B = Sfp PPTase inh; C = KDM4E inh; D = G9a block; E = Lamin A splicing; F = ALDH1A1 block
(1) Cc1ccc(NC(=O)CSCC#N)cc1
  A: -6%; B: 11%; C: 6%; D: 50µM*; E: -2%; F: 3%
(2) Cc1ccc(N2CCN(S(=O)(=O)c3cc(C(=O)Nc4cc(Cl)cc(Cl)c4)ccc3F)CC2C)cc1 (stereo not given)
  A: 29%; B: .; C: .; D: ?; E: -23%[46 µM]; F: .
(3) Cc1nc2ccc(S(=O)(=O)NC(C(=O)NCc3ccc(Cl)cc3)C(C)C)cc2s1 (stereo not given)
  A: -30%; B: .; C: .; D: 27%[59 µM]; E: .; F: .
(4) CSCC[C@H](NC(=O)[C@H](CC(C)C)NC(=O)CNC(=O)[C@@H]1CCCN1C(=O)[C@H](Cc1ccccc1)NC(=O)[C@H](Cc1ccccc1)NC(=O)[C@H](CC(=O)O)NC(=O)[C@H](Cc1cnc[nH]1)NC(=O)[C@H](CCSC)NC(=O)[C@@H](N)CC(=O)O)C(N)=O
  A: .; B: 6%; C: .; D: .; E: .; F: .
(5) Cc1ccccc1NC(=O)Cn1nnc(C(=O)NCc2cccs2)c1N
  A: 6%; B: .; C: .; D: -2%[59 µM]; E: .; F: .
(6) CCOc1ccc(S(=O)(=O)N2CCOCC2)cc1NC(=O)CN1C(=O)NC(C)(c2ccccc2)C1=O (stereo not given)
  A: .; B: .; C: .; D: -12%[2.33 µM]; E: .; F: .
(7) O=C(c1ccc(F)cc1)N1CCC(c2nc(-c3ccc(S(=O)(=O)N4CCCC4)cc3)no2)CC1
  A: 11%; B: .; C: .; D: 0%[59 µM]; E: .; F: .
(8) COc1ccccc1NC(=O)CN1CCN(CC(=O)Nc2cc(NC(C)=O)ccc2OC)CC1
  A: 4%; B: 0%; C: 10%; D: 40µM*; E: 5%; F: ?
(9) Cc1ccc(OCCC(=O)OCC(=O)Nc2ccc3c(c2)OCCO3)cc1
  A: .; B: .; C: .; D: -21%; E: .; F: .
(10) CCOc1ccc(OCCC(=O)OCC(=O)Nc2ccc3c(c2)OCO3)cc1
  A: .; B: .; C: .; D: 45µM*; E: .; F: .
(11) CCc1ccc(C(=O)c2cn(CC(=O)Nc3ccc4c(c3)OCO4)c3ccc(OC)cc3c2=O)cc1
  A: -11%; B: .; C: .; D: 14µM*; E: .; F: .
(12) COc1ccc(NC(C)=O)cc1NC(=O)CN1CCN(CC(=O)Nc2ccccc2Cl)CC1
  A: 10%; B: 0%; C: 1%; D: .; E: -2%; F: ?
(13) COc1cccc(NC(=O)c2ccc3c(c2)OCCO3)c1
  A: 11%; B: 16%; C: .; D: 8%; E: .; F: .
(14) COc1cccc(CNC(C)C(=O)Nc2ccc3c(c2)OCCO3)c1 (stereo not given)
  A: -16%; B: -25%; C: ?; D: 45µM*; E: .; F: ?
(15) CCCCCCc1c(C)c2c(cc(C)c3c(C)c(C)oc32)oc1=O
  A: 4%; B: .; C: .; D: -14%[59 µM]; E: .; F: .
(16) Cc1nn(CC(=O)Nc2ccc3c(c2)OCO3)c(C)c1Cl
  A: -26%; B: -1%; C: .; D: 71µM*; E: .; F: .
(17) O=C(CN1CCc2ccccc21)Nc1ccc2c(c1)OCO2
  A: -5%; B: -1%; C: -17%; D: ?; E: 1%; F: 13µM*
(18) O=C(CN1CCc2ccccc21)NCc1ccc2c(c1)OCO2
  A: -32%; B: -4%; C: 0%; D: 22%[59 µM]; E: -2%; F: ?
(19) CC1(C)CC(NC(=S)NCc2ccc3c(c2)OCO3)CC(C)(C)N1
  A: -2%; B: -10%; C: ?; D: 40µM*; E: ?; F: -2%
(20) COc1ccccc1NC(=O)CN1CCN(CC(=O)Nc2ccc3c(c2)OCO3)CC1
  A: 4%; B: -21%; C: 2%; D: -18%[12.7 µM]; E: 1%; F: 11µM*
(21) S=C(NCc1ccc2c(c1)OCO2)NC1CC1
  A: -1%; B: 0%; C: -5%; D: -24%; E: .; F: -9%
(22) COc1ccccc1OCC(=O)Nc1ccc2c(c1)OCO2
  A: -70%; B: 11%; C: .; D: -19%; E: .; F: .
(23) CCc1ccc(NC(=O)C(=O)NCC(c2ccc3c(c2)OCO3)N2CCN(C)CC2)cc1 (stereo not given)
  A: -8%; B: .; C: .; D: -1%[59 µM]; E: -7%[46 µM]; F: .
(24) O=C(CSCSCC(=O)Nc1ccc2c(c1)OCO2)Nc1ccc2c(c1)OCO2
  A: -18%; B: 9%; C: -3%; D: 2%; E: ?; F: ?
(25) COc1ccc(OCCCC(=O)Nc2ccc3c(c2)OCCO3)cc1
  A: -16%; B: -6%; C: -2%; D: ?; E: 2%; F: 22µM*

The closing 3 compounds of the section above come first, to join the parts:
Labels used below: A = miR-21 reporter; B = Sfp PPTase inh; C = KDM4E inh; D = G9a block; E = Lamin A splicing; F = ALDH1A1 block
(23) CCc1ccc(NC(=O)C(=O)NCC(c2ccc3c(c2)OCO3)N2CCN(C)CC2)cc1 (stereo not given)
  A: -8%; B: .; C: .; D: -1%[59 µM]; E: -7%[46 µM]; F: .
(24) O=C(CSCSCC(=O)Nc1ccc2c(c1)OCO2)Nc1ccc2c(c1)OCO2
  A: -18%; B: 9%; C: -3%; D: 2%; E: ?; F: ?
(25) COc1ccc(OCCCC(=O)Nc2ccc3c(c2)OCCO3)cc1
  A: -16%; B: -6%; C: -2%; D: ?; E: 2%; F: 22µM*
(26) CCOC(=O)N1CCN(CC(=O)NC(=O)Nc2ccc3c(c2)OCCO3)CC1
  A: .; B: .; C: .; D: 50µM*; E: .; F: .
(27) Cc1ccc(CSCC(=O)Nc2ccc3c(c2)OCO3)cc1
  A: -18%; B: 6%; C: -7%; D: 13%[59 µM]; E: 19%; F: 7.9µM*
(28) O=C(O)c1ccc(Cl)c(NCc2cccs2)c1
  A: 0%; B: 9%; C: .; D: ?; E: .; F: .
(29) COc1ccc(N2CCN(C(=O)c3cc(S(=O)(=O)N4CCC(C)CC4)cn3C)CC2)cc1
  A: -11%; B: .; C: .; D: ?; E: -3%[46 µM]; F: .
(30) COC(=O)c1c(C)[nH]c(C)c1-c1cccc([N+](=O)[O-])c1
  A: 1%; B: 9%; C: -2%; D: 56µM*; E: .; F: ?
(31) O=C1[C@@H]2C(c3cccnc3)=NO[C@@H]2C(=O)N1c1ccc(Br)cc1
  A: 1%; B: ?; C: 0%; D: 8.9µM*; E: .; F: 7.9µM*
(32) COc1cc(NC(=O)C2CCN(S(=O)(=O)c3c(C)noc3/C=C/c3c(C)cc(C)cc3C)CC2)cc(OC)c1
  A: -8%; B: .; C: .; D: 0%[59 µM]; E: 11%[46 µM]; F: .
(33) COc1ccccc1C1Nc2c(sc3nc(C)cc(C)c23)C(=O)N1c1ccccc1 (stereo not given)
  A: -58%; B: .; C: .; D: 13%[59 µM]; E: .; F: .
(34) O=C(CCCOc1cccc(Br)c1)NC1CCC(O)CC1 (stereo not given)
  A: -14%; B: 12%; C: .; D: 10%; E: .; F: .
(35) O=C(O)c1ccccc1S(=O)(=O)Cc1ccccc1
  A: -10%; B: 18%; C: 2%; D: -14%[12.7 µM]; E: 5%; F: -1%
(36) Cn1ncc(S(=O)(=O)Cc2ccccc2)c(Br)c1=O
  A: .; B: .; C: .; D: 1.5µM*; E: .; F: .
(37) CC(CCc1ccccc1)NC(=O)CN1CCN(c2ccccc2)CC1 (stereo not given)
  A: -11%; B: 13%; C: 0%; D: -45%; E: .; F: 32µM*
(38) CC(NC(=O)CN1CCN(c2ccc(Cl)cc2)CC1)c1ccccc1 (stereo not given)
  A: 6%; B: 6%; C: .; D: 20%[0.501 µM]; E: .; F: .
(39) CC(CCc1ccccc1)NC(=O)/C=C/c1ccccc1 (stereo not given)
  A: -17%; B: 11%; C: 5%; D: 9%[59 µM]; E: -7%; F: 11µM*
(40) c1ccc(-c2cc3n(c2)CCc2ccccc2-3)cc1
  A: -16%; B: 9%; C: ?; D: 3.2µM*; E: -8%; F: -11%
(41) COc1ccc(N2CC(NC(=O)c3ccco3)CC2=O)cc1OC (stereo not given)
  A: 0%; B: .; C: .; D: -3%[59 µM]; E: -12%[46 µM]; F: .
(42) COc1ccccc1NC(=S)NC(=O)Cc1ccc(Cl)cc1
  A: 0%; B: 23%; C: .; D: -2%; E: .; F: .
(43) COc1ccccc1NC(=S)NNC(=O)c1ccc(Cl)cc1Cl
  A: -56%; B: 14%; C: 2%; D: 20µM*; E: ?; F: ?
(44) CCc1ccccc1NC(=S)NNC(=O)c1ccccc1Cl
  A: -27%; B: 23%; C: 26%; D: -33%; E: -6%[46 µM]; F: -8%
(45) COc1ccccc1NC(=S)NC(=O)CCCOc1ccc(Cl)cc1Cl
  A: -1%; B: 15%; C: -1%; D: 4%; E: 10%; F: 11µM*
(46) COc1ccc(Cc2nnc(SCC(=O)c3ccc4c(c3)NC(=O)CO4)o2)cc1
  A: .; B: .; C: .; D: -44%; E: .; F: .
(47) NS(=O)(=O)c1ccc(NC(=O)CN2CCc3ccccc32)cc1
  A: -3%; B: 0%; C: -5%; D: .; E: .; F: .
(48) O=C(CN1CCCc2ccccc21)N/N=C/c1ccc(O)cc1O
  A: -29%; B: 7%; C: 25µM*; D: 79µM*; E: ?; F: 5%

Assay outcomes: PubChem BioAssay, National Center for Advancing Translational Sciences (NCATS)
